Test results reported in patent publication US6365633B1, “Method of treating eating disorders” (Knoll Pharmaceutical Company, priority 1999, dated 2002).

Experiments:
[1] = biological target: [3H]5-HT reuptake in rat brain tissue; details: read-out: Ki (nM) [3H]5-HT, reuptake inhibition, means of ≧3 separate determinations
[2] = biological target: [3H]Dopamine reuptake in rat brain tissue; experiment: in vitro [3H]dopamine reuptake inhibition in rat brain tissue; type: biochemical; details: means of ≧3 separate determinations

| SMILES | Ki [1] [nM] | Ki [2] [nM] |
| --- | --- | --- |
| CNC(CC(C)C)C1(c2ccc(Cl)cc2)CCC1 (stereo not shown) [Example 1, N-{1-[1-(4-chlorophenyl)cyclobutyl]-3-methylbutyl}-N-methylamine] | 18 | 24 |
| CC(C)CC(N)C1(c2ccc(Cl)cc2)CCC1 (stereo not shown) [Example 2, 1-[1-(4-chlorophenyl)cyclobutyl]-3-methylbutylamine] | 26 | 31 |
